These are literature values, as cited in US4952693A, “Oxazolo-pyrimidine derivatives” (Warner-Lambert Company, priority 1987, dated 1990).

In the series the test system is PNP. The conditions noted are these: literature report.

Turning to `Nc1nc2nc(N)[nH]c2c(=O)[nH]1` [8-Aminoguanine], the “PNP-activity (in words)” value is “PNP-activity”.
